From PubChem BioAssay AID624330 (Southern Research Specialized Biocontainment Screening …, 2012)
Some of the results follow. Entries with a potency or affinity are not part of this list. The source made the active and inactive calls.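 The calls were made as follows: active = first-screen hits whose inhibition reached a set limit at any dose in the follow-up dose series; inconclusive = inhibition above the set first-screen limit but never retested; inactive = the rest.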

Chains of the proteins cited; added tags and fusions are not shown. Lines headed by an entry give the natural chain unless they say otherwise; changes in a name come on top.
UniProt Q9H0H5: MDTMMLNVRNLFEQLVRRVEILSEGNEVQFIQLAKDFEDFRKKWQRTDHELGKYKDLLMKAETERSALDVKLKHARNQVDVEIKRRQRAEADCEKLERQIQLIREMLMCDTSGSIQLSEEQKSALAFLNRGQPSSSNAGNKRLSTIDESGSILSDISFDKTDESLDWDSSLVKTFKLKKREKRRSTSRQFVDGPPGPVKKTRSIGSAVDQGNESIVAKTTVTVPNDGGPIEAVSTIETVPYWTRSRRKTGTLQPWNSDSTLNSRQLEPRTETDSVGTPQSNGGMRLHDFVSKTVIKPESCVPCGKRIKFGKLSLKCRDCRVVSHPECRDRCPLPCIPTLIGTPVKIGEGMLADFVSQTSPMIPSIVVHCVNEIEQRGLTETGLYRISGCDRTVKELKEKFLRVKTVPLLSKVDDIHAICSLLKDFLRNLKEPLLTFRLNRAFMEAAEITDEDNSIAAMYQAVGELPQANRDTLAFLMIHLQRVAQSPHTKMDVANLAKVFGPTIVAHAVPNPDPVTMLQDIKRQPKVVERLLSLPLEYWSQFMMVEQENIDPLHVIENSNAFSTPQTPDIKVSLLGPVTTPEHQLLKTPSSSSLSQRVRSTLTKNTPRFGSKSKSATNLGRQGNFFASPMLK

What follows are molecules tested against Rac GTPase-activating protein 1 (Homo sapiens) (UniProt Q9H0H5) (assay: MgcRacGAP GTPase-activating activity inhibitors, confirmation, biochemical, ADP Hunter fluorescence, primary and confirmatory (AID 624330;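 also: fluorescence reports GDP produced by GAP-driven GTP hydrolysis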)). Conditions: MgcRacGAP-stimulated Rac1 GTP hydrolysis, at 30 µM, stronger effect = higher value, GST-tagged Rac1 F28L mutant substrate.

| SMILES | inhibition |
| --- | --- |
| CCc1cc(O)c([N+](=O)[O-])c(C)c1[N+](=O)[O-] | inactive: -0.66% |
| CC(C)(C)C(=O)NC(Sc1ccccc1)C(Cl)(Cl)Cl (configuration not stated) | inactive: -0.84% |
| CCOc1ccc(C2=NCC(CBr)S2)cc1 (configuration not stated) | inactive: 4.84% |
| O=P1(Nc2nc3ccc(Cl)cc3s2)COc2ccccc2O1 (configuration not stated) | inactive: 5.12% |
| CC(=O)Nc1ccc([As](=O)(O)O)c(O)c1 | inactive: 13.6% |
| COC(=O)C1(C)COP(=O)(NCc2ccccc2)OC1 (configuration not stated) | inactive: -5.06% |
| N#C/C(=C\c1ccc(N(CCBr)CCBr)cc1)C(N)=O | inactive: 13.8% |
| CC(=O)c1ccc(N2CC2c2ccncc2)cc1 (configuration not stated) | inactive: 3.8% |
| C[C@@H]1C=CCP(=O)(Oc2ccccc2)O1 (some centres not stated) | inactive: 11.9% |
| C[C@H]1OP(=O)(Oc2ccccc2)C[C@@H]2O[C@@H]21 (some centres not stated) | inactive: 4.9% |
| Cc1ccccc1CN(C)C(=O)COC(=O)C(O)(c1ccccc1)c1ccccc1 | inactive: -3.64% |
| O=P1(N(CCCl)CCCl)OCCC2CCCCN21 (configuration not stated) | inactive: 7.27% |
| CCNC(=S)/N=C(\N)N[N+](=O)[O-] | inactive: -2.53% |
| O=C(NC1CCS(=O)(=O)C1)NP(=S)(Oc1ccccc1)Oc1ccccc1 (configuration not stated) | inactive: 3.92% |
| CN(C)C(=O)Oc1noc2ccccc12 | inactive: 9.88% |
| O=c1c2cc([N+](=O)[O-])ccc2[nH]c2c([N+](=O)[O-])cc([N+](=O)[O-])cc12 | inactive: 8.96% |
| Cc1ccccc1OP(=O)(Nc1ccccn1)Oc1ccccc1C | inactive: 6.27% |
| CC(NC(=O)COC(=O)C(O)(c1ccccc1)c1ccccc1)c1ccccc1 (configuration not stated) | inactive: 4.19% |
| CC(=O)NC(SC(=S)N(CC(C)C)CC(C)C)C(Cl)(Cl)Cl (configuration not stated) | inactive: 10.1% |
| Cc1ccc(OP(=O)(Nc2ccccn2)Oc2ccc(C)cc2)cc1 | inactive: 6.68% |
| COC(=O)c1cc2c(s1)N=C(c1ccccc1)N(C)P2(=O)N1CCOCC1 (configuration not stated) | inactive: 11.1% |
| CCC(=O)N1C2C3N(C(=O)CC)C1C1N(C(=O)CC)C(C(N1C(=O)CC)N3C(=O)CC)N2C(=O)CC | inactive: 11% |
| O=C(OC1CN2CCC1CC2)c1ccccc1 (configuration not stated) | inactive: 6.37% |
| C[C@H]1OP(=O)(Oc2ccccc2)[C@H](O)[C@H](O)[C@H]1N=[N+]=[N-] (some centres not stated) | inactive: 15.3% |
| O=P(Nc1nc2ccccc2s1)(c1ccccc1)c1ccccc1 | inactive: 10.7% |
| COc1ccc(N)c([N+](=O)[O-])c1[N+](=O)[O-] | inactive: 1.55% |

| SMILES | inhibition |
| --- | --- |
| O=P(Nc1ccccn1)(c1ccc(Br)cc1)c1ccc(Br)cc1 | inactive: -1.57% |
| Nc1ccc([As](=O)(O)c2ccc([N+](=O)[O-])cc2)cc1 | inactive: 1.99% |
| C(Cc1nn[nH]n1)Cc1nn[nH]n1 | inactive: -0.35% |
| O=C(OC1CN2CCC1CC2)c1cccc(Cl)c1 (configuration not stated) | inactive: 12.8% |
| O=[N+]([O-])c1ccc(O)c(/C=N/Nc2ccc([N+](=O)[O-])cc2[N+](=O)[O-])c1 | inactive: -8.09% |
| CC(=O)NC(SC(=S)N(C)C)C(Cl)(Cl)Cl (configuration not stated) | inactive: 5.27% |
| O=[N+]([O-])c1ncn(CCn2cnc([N+](=O)[O-])n2)n1 | inactive: 6.79% |
| O=[As](O)(c1ccccc1)c1ccc(O)cc1 | inactive: 11.2% |
| c1nnnn1CCn1cnnn1 | inactive: 3.35% |
| CC(C)C(=O)NC(Sc1ccccc1)C(Cl)(Cl)Cl (configuration not stated) | inactive: -3.62% |
| O=P(Nc1nccs1)(c1ccccc1)c1ccccc1 | inactive: 13.3% |
| O=[N+]([O-])c1cccc2n[nH]nc12 | inactive: 3.28% |
| CC(=O)N1C2C3N(C(C)=O)C1C1N(C(C)=O)C(C(N1C(C)=O)N3C(C)=O)N2C(C)=O | inactive: 12.8% |
| CCc1nc2c(n1)c1c(non1O)c1c2no[n+]1[O-] | inactive: 27.6% |
| O=[N+]([O-])c1cc([N+](=O)[O-])c(CCNc2ccccc2)c([N+](=O)[O-])c1 | inactive: 4.19% |
| Cc1ccc(NP(=O)(Oc2ccccc2)Oc2ccccc2)nc1 | inactive: -5.08% |
| COc1ccc(C2=NCC(CBr)S2)cc1 (configuration not stated) | inactive: 15% |
| CN(C)C(=O)OCCc1n(C)cc[n+]1C | inactive: 9.07% |
| CC(C)=N/N=C(\N)N[N+](=O)[O-] | inactive: 2.89% |
| CC(C)c1nc(Nc2ccccc2)n(P(=O)(N(C)C)N(C)C)n1 | inactive: 7.8% |
| c1cc(-c2nn[nH]n2)ccc1-c1nn[nH]n1 | inactive: 8.69% |
| CC1CCN(C(=O)Oc2c(Cl)cc(Cl)c3cccnc23)CC1 | inactive: 10.7% |
| C[N+]1=C2C=CC=CC=C2SC12C([N+](=O)[O-])=CC([N+](=O)[O-])=C[C-]2[N+](=O)[O-] (configuration not stated) | inactive: 41.5% |
| Nc1ccc([As](=O)(O)c2ccc(N)cc2)cc1 | inactive: -1.97% |
| CCN(/C(=N/P(=O)(N1CCOCC1)N1CCOCC1)N1CCOCC1)c1ccc(OC)cc1 | inactive: 5.91% |
| O=C(Nc1cc([As](=O)(O)O)ccc1O)c1ccccc1 | inactive: 9.55% |

| SMILES | inhibition |
| --- | --- |
| O=P1(N(CCCl)CCCl)OCCCS1 (configuration not stated) | inactive: -1.86% |
| O=[N+]([O-])c1cccc(NC2=NCC(CBr)S2)c1 (configuration not stated) | inactive: 13.1% |
| COC(=O)C1(C)COP(=O)(Nc2ccccc2)OC1 (configuration not stated) | inactive: -4.02% |
| O=C(O)CNc1ccc([As](=O)(O)O)cc1 | inactive: 7.59% |
| CC(C)(C)C(=O)NC(Sc1ccncn1)C(Cl)(Cl)Cl (configuration not stated) | inactive: -3.08% |
| O=[N+]([O-])c1ncn(CCn2ncnc2[N+](=O)[O-])n1 | inactive: -0.87% |
| Cc1ccc(NP(=O)(Oc2ccccc2F)Oc2ccccc2F)nc1 | inactive: -0.21% |
| CN(C(=O)Cc1ccc(Cl)c(Cl)c1)[C@H]1CCCC[C@@H]1N1CCCC1 | inactive: 8.34% |
| CCOP(=O)(Nc1ccccc1)OCC | inactive: 7.6% |
| Cc1cc(SC(NC(=O)c2ccc(F)cc2)C(Cl)(Cl)Cl)ncn1 (configuration not stated) | inactive: 19.5% |
| CCCC1OP(N)(=O)OCC1CC (configuration not stated) | inactive: -5.98% |
| O=C(O)c1ccccc1[As](=O)(O)O | inactive: 11.7% |
| CC(=O)Nc1ccc([As](=O)(O)O)cc1 | inactive: -11.5% |
| CN(C)P(=O)(N(C)C)n1c(Nc2ccccc2)nnc1-c1ccccc1 | inactive: 7.47% |
| O=P(Nc1nc2ccc(Cl)cc2s1)(c1ccccc1)c1ccccc1 | inactive: -3.27% |
| CCN(N=Nc1nonc1N)c1nonc1N | inactive: 10.1% |
| COc1ccccc1OP(=O)(Nc1ccc(C)cn1)Oc1ccccc1OC | inactive: 5.03% |
| Clc1ccc(Cl)c(NC2=NCC(CBr)S2)c1 (configuration not stated) | inactive: 3.57% |
| CN1CCCC(OC(=O)C(c2ccccc2)c2ccccc2)C1 (configuration not stated) | inactive: -2.62% |
| NC(=O)c1cc([N+](=O)[O-])cc([N+](=O)[O-])c1N | inactive: 7.07% |
| Cc1ccc(N/C(=N/P(=O)(N2CCOCC2)N2CCOCC2)N2CCOCC2)cc1 | inactive: -9.42% |
| CN(C(=O)Cc1ccc(Cl)c(Cl)c1)[C@H]1CCCC[C@H]1N1CCCC1 | inactive: 0.58% |
| CC(C)CC(=O)NC(Sc1ccc(Cl)cc1)C(Cl)(Cl)Cl (configuration not stated) | inactive: 0.13% |
| Nc1cc(N)c2nonc2c1[N+](=O)[O-] | inactive: 10.9% |
| O=C(NC(Sc1ccncn1)C(Cl)(Cl)Cl)c1ccccc1 (configuration not stated) | inactive: 11.8% |
| Oc1ccccc1CNc1ccccn1 | inactive: 7.15% |

| SMILES | inhibition |
| --- | --- |
| COc1cc(I)ccc1[As](=O)(O)O | inactive: -0.32% |
| COc1ccc2nc(NP(=O)(c3ccccc3)c3ccccc3)sc2c1 | inactive: 4.88% |
| O=P1(N(CCCl)CCCl)OCCCN1CCCl (configuration not stated) | inactive: 1.38% |
| O=P1(N(CCCl)CCCl)Nc2ccccc2N1 | inactive: 26.5% |
| Cc1cc(=O)[nH]c(N[N+](=O)[O-])n1 | inactive: 9.53% |
| O=C(OC1CN2CCC1CC2)C12CC3CC(CC(C3)C1)C2 (configuration not stated) | inactive: 8.14% |
| Cc1c2c(nc3ccccc13)SC(C(Cl)Cl)C2 (configuration not stated) | inactive: 7.38% |
| COc1ccc(N/C(=N/P(=O)(N2CCOCC2)N2CCOCC2)N2CCOCC2)cc1 | inactive: 5.64% |
| O=[N+]([O-])c1cc(Oc2ccc([N+](=O)[O-])cc2C(F)(F)F)cc([N+](=O)[O-])c1 | inactive: 0.72% |
| Cc1ccc2nc3c(c(C)c2c1)CC(C(Cl)Cl)S3 (configuration not stated) | inactive: 2.43% |
| Cc1ccc(OP(=O)(Nc2ccc([N+](=O)[O-])cn2)Oc2ccc(C)cc2)cc1 | inactive: 6.48% |
| COc1cc(C(=O)NCC2(N3CCOCC3)CCCCC2)ccc1OCC(C)C | inactive: 1.47% |
| O=[N+]([O-])c1ccc(-c2cc([N+](=O)[O-])c(O)c([N+](=O)[O-])c2)cc1 | inactive: 3.39% |
| C[As](=O)(O)c1cccc(C(=O)O)c1 | inactive: 6.75% |
| O=[As](O)(c1ccc(O)cc1)c1ccccc1O | inactive: 2.18% |
| O=[N+]([O-])c1cc([N+](=O)[O-])c(-c2ccn[nH]2)s1 | inactive: 7.19% |
| CCN(CC)C(=S)SC(NC=O)C(Cl)(Cl)Cl (configuration not stated) | inactive: 10.1% |
| O=C(OC1CN2CCC1CC2)c1cccc2[nH]cnc12 (configuration not stated) | inactive: 11.1% |
| CC(C)c1ccc(OP(=O)(Nc2ccccn2)Oc2ccccc2F)cc1 (configuration not stated) | inactive: -3.53% |
| COC(=O)C1(C)COP(=O)(N2CCCCCC2)OC1 (configuration not stated) | inactive: 0.93% |
| ClCCSc1nnc(-c2cccnc2)o1 | inactive: 4.41% |
| Cc1cc(SC(NC(=O)c2ccccc2)C(Cl)(Cl)Cl)nc(C(C)C)n1 (configuration not stated) | inactive: 10.7% |
| CCCCOc1ccc(C(=O)NCC2(N3CCCCC3)CCCCC2)cc1OC | inactive: 4.17% |
| COP(=O)(OC)N1CC1c1ccccc1 (configuration not stated) | inactive: 9.67% |
